Source: patent publication US11926618B2, “Halogen-substituted phenylate compound and applications thereof” (HINOVA PHARMACEUTICALS INC., priority 2019, dated 2024)

Protein sequences, listed by entry. Tags and fused reporters are not part of them. Residues count along the entry.
UniProt P10828, 217-461 limits assumed: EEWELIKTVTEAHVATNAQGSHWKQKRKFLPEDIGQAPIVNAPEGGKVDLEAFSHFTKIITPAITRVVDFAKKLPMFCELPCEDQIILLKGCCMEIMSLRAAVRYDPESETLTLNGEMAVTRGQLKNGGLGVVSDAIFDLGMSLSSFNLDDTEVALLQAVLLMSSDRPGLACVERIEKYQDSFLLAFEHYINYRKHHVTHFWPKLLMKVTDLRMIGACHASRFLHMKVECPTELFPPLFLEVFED
UniProt P10827, 163-410 isoform P10827-2 limits assumed: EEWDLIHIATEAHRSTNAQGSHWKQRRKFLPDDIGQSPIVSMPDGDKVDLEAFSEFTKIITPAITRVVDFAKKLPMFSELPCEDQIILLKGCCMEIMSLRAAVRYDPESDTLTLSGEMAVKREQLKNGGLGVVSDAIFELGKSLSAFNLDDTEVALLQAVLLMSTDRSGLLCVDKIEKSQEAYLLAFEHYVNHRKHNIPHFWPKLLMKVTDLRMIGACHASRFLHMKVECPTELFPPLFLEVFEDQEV

Experiments:
THR-β = target: T1, THR-β (Homo sapiens, UniProt P10828); assay: Agonistic activity on THR-β (TRβ-LBD/RXRα, biotin-SRC2-2 recruitment, fluorescence ratio 665 nm/615 nm); assay type: biochemical; conditions: THR-α EC50 ÷ THR-β EC50
T1 construct: A mixed solution of 4× TRα-LBD or TRβ-LBD and 4× RXRα was prepared
Procedure: (§1) 100× solutions of reference compounds or compounds were prepared with DMSO and then diluted in a 1:3 equal ratio. The gradient dilution of 100× reference compound or compound was further diluted to 4× with 1× reaction buffer and then added to the test plate. A mixed solution of 4× TRα-LBD or TRβ-LBD and 4× RXRα was prepared with 1× reaction buffer and added to the test plate. […] The plate was centrifuged at 1000 rpm for 1 min and then incubated at room temperature and in the dark for 4 h.

THR-α = target: T2, THR-α (Homo sapiens, UniProt P10827); assay: Agonistic activity on THR-α (TRα-LBD/RXRα, biotin-SRC2-2 recruitment, fluorescence ratio 665 nm/615 nm); assay type: biochemical; conditions: in words, versus MGL-3196
T2 construct: A mixed solution of 4× TRα-LBD or TRβ-LBD and 4× RXRα was prepared
Procedure: as §1

Row | SMILES | Selectivity THR-β/THR-α (THR-β) | Agonistic activity for THR-α compared to control compound MGL-3196 (THR-α)
1 | CC(C)c1cc(Oc2c(Cl)cc(-n3nc(C#N)c(=O)[nH]c3=O)cc2Br)n[nH]c1=O [Compound 1, 2-(3-bronco-5-chloro-4-((5-isopropyl-6-oxo-1,6-dihydropyridazin-3-yl)oxy)phenyl)-3,5-dioxo-2,3,4,5-tetrahydro-1,2,4-triazine-6-nitrile] | 18 | 
2 | [2H]C([2H])([2H])C(c1cc(Oc2c(Cl)cc(-n3nc(C#N)c(=O)[nH]c3=O)cc2Br)n[nH]c1=O)C([2H])([2H])[2H] [Compound 2, 2-(3-bromo-5-chloro-4-((5-di(trideuteromethyl)methyl-6-oxo-1,6-dihydropyridazine-3-yl)oxy)phenyl)-3,5-dioxo-2,3,4,5-tetrahydro-1,2,4-triazine-6-nitrile] | 20 | 
3 | [2H]c1c(Oc2c(Cl)cc(-n3nc(C#N)c(=O)[nH]c3=O)cc2Br)n[nH]c(=O)c1C(C([2H])([2H])[2H])C([2H])([2H])[2H] [Compound 3, 2-(3-bromo-5-chloro-4-((4-deutero-5-(1,1,1,3,3,3-hexadeuteropropyl-2-yl)-6-oxo-1,6-dihydropyrazin-3-yl)oxy)phenyl)-3,5-dioxy-2,3,4,5-tetrahydro-1,2,4-triazine-6-nitrile] | 22 | significantly higher agonistic activities
